Laboratory results published in patent US20070142302A1, “PEPTIDYL PRODRUGS THAT RESIST P-GLYCOPROTEIN MEDIATED DRUG EFFLUX” (The Curators of the University of Missouri, priority 2004, published 2007).
Like-named read-outs stand apart in the source and are kept apart here.

Test system: P-gp

In the case of `C[C@]12CC[C@H]3[C@@H](CCC4=CC(=O)CC[C@@]43C)[C@@H]1CC[C@@H]2O` [testosterone], the “Change in corneal absorption rate (ka) of erythromycin” value (testosterone 100 μM or 150 μM) is reported as “No significant difference”, the “Inhibition of P-gp efflux (determined by increased absorption)” value (testosterone 250 μM) is reported as “significant inhibition” and the “Inhibition of P-gp efflux (determined by increased absorption)” value (testosterone 500 μM) is reported as “highest inhibition”.
